ChEMBL document CHEMBL5576093, “Design, synthesis and evaluation of bioactivity of peptidomimetics based on chloroalkene dipeptide isosteres” (Bioorg Med Chem, 2024)

By UniProt entry, the sequences of proteins in these tests, tags left out.
UniProt P61073, whole entry: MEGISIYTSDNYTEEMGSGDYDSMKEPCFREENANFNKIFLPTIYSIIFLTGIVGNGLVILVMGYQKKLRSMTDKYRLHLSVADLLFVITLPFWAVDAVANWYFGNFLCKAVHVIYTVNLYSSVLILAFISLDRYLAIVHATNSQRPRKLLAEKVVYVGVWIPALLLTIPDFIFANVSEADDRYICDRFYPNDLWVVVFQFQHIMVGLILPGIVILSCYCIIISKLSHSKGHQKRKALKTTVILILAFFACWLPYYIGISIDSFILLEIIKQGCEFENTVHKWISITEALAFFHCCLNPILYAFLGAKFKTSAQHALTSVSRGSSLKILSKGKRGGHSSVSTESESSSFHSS

Target: C-X-C chemokine receptor type 4 (Homo sapiens, UniProt P61073)
Assay: Antagonist activity at CXCR4 (unknown origin)
Format: functional

- EC50: 68 nM
Structure (SMILES): N=C(N)NCCC[C@@H]1NC(=O)[C@H](CCCNC(=N)N)NC(=O)[C@@H](Cc2ccc(O)cc2)NC(=O)CNC(=O)[C@H](Cc2ccc3ccccc3c2)NC1=O
